Experiment [1] deals with MDA-MB-468 control cells. As to the kind of experiment: MT cell viability assay (CellTiter-Glo 2.0), control cells. The format is cell-based, Human. The settings on record: control MDA-MB-468 cells, read-out: half maximal inhibitory concentration or IC50 (cell viability). The protocol: (§1) FIG. 10 depicts graphs representing cell viability at 48h and 72 h as a function of the drug concentration M, for MDA MB 468 control cells (w) or stably overexpressing Kindlin-1 (k1).
(§2) 15 000 cells were seeded in a 96-well plate and treated with Cetuximab (Erbitux 5 mg/ml, Merck Europe). After 48 and 72 hours cell viability was assessed using the CellTiter-Glo 2.0 Assay according to the instructions of the manufacturer (Promega, Madison, WI, USA). Luminiscence was recorded on a 96-well microplate reader (Promega Glomax Discover, Promega).
(§3) The possibility that Kindlin-1 ectopic expression could reverse the sensitivity to the EGFR inhibitor Cetuximab was tested. The inventors hypothesized that ectopic expression of Kindlin-1 could bypass the action of Cetuximab, maintaining the EGFR pathway activated and therefore rendering sensitive cells more resistant. To confirm our hypothesis, MDA-MB-468 cells stably overexpressing Kindlin-1 was generated (named k1). Control- and Kindlin-1-expressing MDA-MB-468 cells were treated with increasing concentrations of Cetuximab (1-20 µM) and a MT cell viability assay was performed after 48 h and 72 h of treatment.

The subject of experiment [2] is MDA-MB-468 cells stably overexpressing Kindlin-1 (k1). As to the kind of experiment: MT cell viability assay (CellTiter-Glo 2.0), Kindlin-1 overexpressing cells. In kind it is cell-based, Human. The settings on record: Kindlin-1-expressing MDA-MB-468 cells (k1), read-out: half maximal inhibitory concentration or IC50 (cell viability). The protocol: as §1, §2, §3
Background: ATP-based viability assays read luminescence as a measure of living cells.

Read-outs that look alike come from different tables or passages of the source.

Regarding Cetuximab, the IC50 in experiment [1] (48 h of treatment) came to 7.3 µM; in experiment [1] (72 h of treatment), 6.1 µM; in experiment [2] (48 h of treatment), 14.8 µM; in experiment [2] (72 h of treatment), 11.3 µM.

The values are drawn from patent US20230184775A1, “KINDLIN-1 AS A MARKER OF SENSITIVITY TO EGFR/RAS PATHWAY INHIBITORS” (INSTITUT CURIE, priority 2020, published 2023).
